US9296725B2, “Heterocyclyl pyrimidine analogues as TYK2 inhibitors” (Cellzome Limited, priority 2012, dated 2016)

Amino acid sequences for entries named in this document (tags omitted).
UniProt P29597, whole entry: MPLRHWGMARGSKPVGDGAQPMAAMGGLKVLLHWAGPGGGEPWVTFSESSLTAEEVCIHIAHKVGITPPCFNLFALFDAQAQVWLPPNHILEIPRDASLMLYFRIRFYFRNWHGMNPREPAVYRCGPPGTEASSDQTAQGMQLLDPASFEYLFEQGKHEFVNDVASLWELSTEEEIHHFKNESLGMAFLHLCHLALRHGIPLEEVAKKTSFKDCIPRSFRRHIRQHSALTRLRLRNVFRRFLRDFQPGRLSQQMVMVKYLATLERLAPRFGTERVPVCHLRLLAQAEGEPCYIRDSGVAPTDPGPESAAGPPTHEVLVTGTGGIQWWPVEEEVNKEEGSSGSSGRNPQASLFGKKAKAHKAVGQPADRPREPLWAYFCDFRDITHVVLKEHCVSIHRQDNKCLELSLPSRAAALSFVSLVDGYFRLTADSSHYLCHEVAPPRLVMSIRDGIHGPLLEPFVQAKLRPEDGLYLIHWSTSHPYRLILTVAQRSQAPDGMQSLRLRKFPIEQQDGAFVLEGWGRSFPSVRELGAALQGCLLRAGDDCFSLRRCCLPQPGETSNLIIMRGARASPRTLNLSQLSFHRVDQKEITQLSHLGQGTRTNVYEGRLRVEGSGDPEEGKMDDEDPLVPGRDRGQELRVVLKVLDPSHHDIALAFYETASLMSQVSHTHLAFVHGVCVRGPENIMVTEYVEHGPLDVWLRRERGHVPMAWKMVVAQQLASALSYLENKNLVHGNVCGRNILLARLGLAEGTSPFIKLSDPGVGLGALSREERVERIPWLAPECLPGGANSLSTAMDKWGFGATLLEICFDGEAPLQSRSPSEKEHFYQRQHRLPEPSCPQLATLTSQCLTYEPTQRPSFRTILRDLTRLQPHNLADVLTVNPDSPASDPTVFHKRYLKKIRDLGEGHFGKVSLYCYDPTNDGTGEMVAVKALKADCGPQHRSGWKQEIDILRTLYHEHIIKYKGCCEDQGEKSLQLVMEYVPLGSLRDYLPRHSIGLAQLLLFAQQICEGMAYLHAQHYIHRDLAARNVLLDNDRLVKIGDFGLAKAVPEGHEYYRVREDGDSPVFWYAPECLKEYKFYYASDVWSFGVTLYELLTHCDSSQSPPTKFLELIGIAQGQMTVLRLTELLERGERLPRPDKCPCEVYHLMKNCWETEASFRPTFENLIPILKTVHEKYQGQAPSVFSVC
UniProt O60674, whole entry: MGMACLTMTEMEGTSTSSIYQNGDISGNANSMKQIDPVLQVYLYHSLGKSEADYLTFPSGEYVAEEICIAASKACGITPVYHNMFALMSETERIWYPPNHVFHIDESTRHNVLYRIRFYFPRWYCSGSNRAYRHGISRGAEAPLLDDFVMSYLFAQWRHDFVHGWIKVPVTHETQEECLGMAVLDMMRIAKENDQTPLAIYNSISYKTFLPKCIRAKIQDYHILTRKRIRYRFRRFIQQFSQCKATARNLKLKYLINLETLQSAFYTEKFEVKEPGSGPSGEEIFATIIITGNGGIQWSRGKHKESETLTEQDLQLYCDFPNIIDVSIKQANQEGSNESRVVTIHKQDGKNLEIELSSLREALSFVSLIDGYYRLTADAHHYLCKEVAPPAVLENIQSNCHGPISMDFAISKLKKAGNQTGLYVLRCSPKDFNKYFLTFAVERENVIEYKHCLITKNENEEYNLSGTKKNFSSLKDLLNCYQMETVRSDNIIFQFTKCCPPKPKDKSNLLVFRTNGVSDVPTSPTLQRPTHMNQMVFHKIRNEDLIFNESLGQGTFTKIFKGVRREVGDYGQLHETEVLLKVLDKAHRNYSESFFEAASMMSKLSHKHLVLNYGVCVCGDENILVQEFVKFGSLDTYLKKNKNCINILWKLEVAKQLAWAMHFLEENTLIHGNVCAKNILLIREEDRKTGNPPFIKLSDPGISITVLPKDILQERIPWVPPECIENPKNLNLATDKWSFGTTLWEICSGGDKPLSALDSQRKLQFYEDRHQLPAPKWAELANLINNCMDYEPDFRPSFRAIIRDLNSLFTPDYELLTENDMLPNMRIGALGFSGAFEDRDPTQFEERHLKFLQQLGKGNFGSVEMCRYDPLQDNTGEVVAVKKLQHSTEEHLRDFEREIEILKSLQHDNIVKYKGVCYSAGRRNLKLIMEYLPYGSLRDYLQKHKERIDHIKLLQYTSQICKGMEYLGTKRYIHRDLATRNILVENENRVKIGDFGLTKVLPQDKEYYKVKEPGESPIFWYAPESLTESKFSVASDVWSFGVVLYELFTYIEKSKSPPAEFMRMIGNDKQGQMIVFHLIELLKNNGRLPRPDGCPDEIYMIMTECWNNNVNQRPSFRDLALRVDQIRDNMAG

Tests used:
[1] = target: TYK2 (Homo sapiens, UniProt P29597); test: Kinobeads assay, TYK2 (competition binding in mixed Molt4/Ramos cell lysate, dot blot detection); settings: read-out: TYK2 Band (Kinobeads assay potency, IC50)
Description: (§1) The compounds of the present invention as described in the previous examples were tested in a Kinobeads™ assay as described for ZAP-70 (WO-A 2007/137867). Briefly, test compounds (at various concentrations) and the affinity matrix with the immobilized aminopyrido-pyrimidine ligand 24 were added to cell lysate aliquots and allowed to bind to the proteins in 10 the lysate sample. After the incubation time the beads with captured proteins were separated from the lysate. Bound proteins were then eluted and the presence of TYK2 and JAK2 was detected and quantified using specific antibodies in a dot blot procedure and the Odyssey infrared detection system. Dose response curves for individual kinases were generated and IC50 values calculated. Kinobeads™ assays have been previously described (WO-A 2007/137867; WO-A 2006/134056). […]
(§2) Molt4 cells (ATCC catalogue number CRL-1582) and Ramos cells (ATCC catalogue number CRL-1596) were grown in 1 L Spinner flasks (Integra Biosciences, #182101) in suspension in RPMI 1640 medium (Invitrogen, #21875-034) supplemented with 10% Fetal Bovine Serum (Invitrogen) at a density between 0.15×10^6 and 1.2×10^6 cells/mL. […] The supernatant was transferred again to a fresh 50 mL falcon tube, the protein concentration was determined by a Bradford assay (BioRad) and samples containing 50 mg of protein per aliquot were prepared. […]

[2] = target: JAK2 (Homo sapiens, UniProt O60674); test: Kinobeads assay, JAK2 (competition binding in mixed Molt4/Ramos cell lysate, dot blot detection); settings: read-out: JAK2 Band (Kinobeads assay potency, IC50)
Description: as §1, §2

- IC50 [1]: 0.01 to 0.1 µM
- IC50 [2]: 1 to 10 µM
SMILES: Cn1cc(Nc2ncc(F)c(NCc3cc(S(C)(=O)=O)ccc3F)n2)cn1
